{
  "sequences": {"note": "The chains behind the UniProt entries cited, without tags or fusion partners. Residues count along the entry.", "UniProt P22607, 23-806 limits assumed": "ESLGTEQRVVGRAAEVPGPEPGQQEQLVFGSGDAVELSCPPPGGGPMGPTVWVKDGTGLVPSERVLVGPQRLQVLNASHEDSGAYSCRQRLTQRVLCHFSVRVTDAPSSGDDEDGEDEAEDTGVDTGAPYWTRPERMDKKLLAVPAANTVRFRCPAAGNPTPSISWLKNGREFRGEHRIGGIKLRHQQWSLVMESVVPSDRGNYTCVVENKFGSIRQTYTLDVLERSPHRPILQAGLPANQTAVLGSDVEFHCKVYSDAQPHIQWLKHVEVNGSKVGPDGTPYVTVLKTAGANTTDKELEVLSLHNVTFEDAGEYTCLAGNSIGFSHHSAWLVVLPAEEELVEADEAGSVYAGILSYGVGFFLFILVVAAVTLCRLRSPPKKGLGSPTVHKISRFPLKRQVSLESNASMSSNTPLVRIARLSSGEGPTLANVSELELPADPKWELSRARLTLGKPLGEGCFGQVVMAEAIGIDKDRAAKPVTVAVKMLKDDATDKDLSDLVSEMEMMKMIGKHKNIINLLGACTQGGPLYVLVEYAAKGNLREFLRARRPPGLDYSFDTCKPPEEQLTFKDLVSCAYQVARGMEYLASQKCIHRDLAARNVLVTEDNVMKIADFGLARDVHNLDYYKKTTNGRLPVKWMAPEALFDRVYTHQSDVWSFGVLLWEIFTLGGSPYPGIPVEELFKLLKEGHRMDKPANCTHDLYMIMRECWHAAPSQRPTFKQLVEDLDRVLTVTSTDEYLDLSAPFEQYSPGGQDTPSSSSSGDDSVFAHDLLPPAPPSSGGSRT", "UniProt P21802, 22-821 limits assumed": "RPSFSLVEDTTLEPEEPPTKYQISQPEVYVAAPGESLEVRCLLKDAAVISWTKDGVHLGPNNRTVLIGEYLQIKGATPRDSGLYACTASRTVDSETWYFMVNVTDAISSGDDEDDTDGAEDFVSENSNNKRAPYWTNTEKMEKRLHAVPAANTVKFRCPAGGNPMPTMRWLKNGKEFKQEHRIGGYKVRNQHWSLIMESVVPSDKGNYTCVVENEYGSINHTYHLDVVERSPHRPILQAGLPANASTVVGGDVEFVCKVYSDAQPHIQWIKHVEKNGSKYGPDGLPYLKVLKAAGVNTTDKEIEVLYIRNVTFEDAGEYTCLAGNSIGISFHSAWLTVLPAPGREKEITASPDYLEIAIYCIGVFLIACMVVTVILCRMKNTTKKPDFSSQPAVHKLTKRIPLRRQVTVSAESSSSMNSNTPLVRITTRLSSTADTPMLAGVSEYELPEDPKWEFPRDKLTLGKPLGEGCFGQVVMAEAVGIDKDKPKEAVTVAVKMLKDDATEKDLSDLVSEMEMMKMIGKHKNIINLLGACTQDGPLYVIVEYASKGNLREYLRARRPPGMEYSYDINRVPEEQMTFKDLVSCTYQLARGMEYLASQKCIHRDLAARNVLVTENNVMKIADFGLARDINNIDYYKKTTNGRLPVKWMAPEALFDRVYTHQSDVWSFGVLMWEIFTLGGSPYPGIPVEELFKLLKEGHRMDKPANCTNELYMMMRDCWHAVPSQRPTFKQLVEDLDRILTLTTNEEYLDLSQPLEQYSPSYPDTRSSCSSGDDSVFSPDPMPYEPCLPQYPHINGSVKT", "UniProt P11362, 22-822 limits assumed": "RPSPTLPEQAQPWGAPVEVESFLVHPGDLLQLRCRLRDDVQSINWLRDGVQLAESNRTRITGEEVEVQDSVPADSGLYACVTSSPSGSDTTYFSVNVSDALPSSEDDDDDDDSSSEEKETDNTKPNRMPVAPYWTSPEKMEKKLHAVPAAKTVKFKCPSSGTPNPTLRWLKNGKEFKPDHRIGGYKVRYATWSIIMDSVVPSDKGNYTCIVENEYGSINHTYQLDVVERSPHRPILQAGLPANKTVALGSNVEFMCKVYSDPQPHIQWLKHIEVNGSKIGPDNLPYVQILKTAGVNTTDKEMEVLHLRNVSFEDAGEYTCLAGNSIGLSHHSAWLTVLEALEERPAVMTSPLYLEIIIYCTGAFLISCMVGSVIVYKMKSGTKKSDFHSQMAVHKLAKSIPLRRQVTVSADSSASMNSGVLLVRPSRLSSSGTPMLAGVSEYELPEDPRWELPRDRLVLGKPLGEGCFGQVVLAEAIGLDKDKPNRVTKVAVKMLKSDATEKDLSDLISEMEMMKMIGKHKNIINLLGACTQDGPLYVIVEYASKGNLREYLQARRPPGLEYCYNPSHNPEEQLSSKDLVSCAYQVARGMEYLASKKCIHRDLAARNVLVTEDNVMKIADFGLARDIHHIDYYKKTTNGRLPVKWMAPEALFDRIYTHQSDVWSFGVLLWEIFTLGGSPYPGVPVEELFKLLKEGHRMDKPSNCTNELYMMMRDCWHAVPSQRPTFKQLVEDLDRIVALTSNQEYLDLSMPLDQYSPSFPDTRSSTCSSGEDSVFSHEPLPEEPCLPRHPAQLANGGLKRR"},
  "source": "patent US11286248B2",
  "about": "“Pyrazine-2(1H)-ketone compound acting as FGFR inhibitor” (ZHANGZHOU PIEN TZE HUANG PHARMACEUTICAL CO., LTD., priority 2018, dated 2022)",
  "assay_type_in_all_cases": "biochemical",
  "key": {"[1]": {"target": "FGFR3 (Homo sapiens, UniProt P22607)", "experiment": "33P isotope-labeled kinase activity test (Reaction Biology Corp), wild-type FGFR3"}, "[2]": {"target": "FGFR2 (Homo sapiens, UniProt P21802)", "experiment": "33P isotope-labeled kinase activity test (Reaction Biology Corp), wild-type FGFR2"}, "[3]": {"target": "human FGFR1 (Homo sapiens, UniProt P11362)", "experiment": "33P isotope-labeled kinase activity test (Reaction Biology Corp), wild-type FGFR1", "conditions": "read-out: IC50 (nM) FGFR1, 33P-ATP 5 μM, substrate pEY + Mn, 120 minutes at room temperature"}},
  "data": [
    {"smiles": "COc1cc(OC)cc(-c2nc(-c3nc(-c4cnn(CCN5CCOCC5)c4C)cnc3N)cn(C)c2=O)c1", "values": [
      {"measurement": "Selectivity FGFR1/3", "setting": "[1]; ratio of IC50 FGFR1 to IC50 FGFR3", "result": 13},
      {"measurement": "IC50", "setting": "[1]; read-out: IC50 (nM) FGFR3, wild-type kinase, 33P-ATP 30 μM, substrate pEY + Mn, 120 minutes at room temperature", "result": 17.4, "unit": "nM"},
      {"measurement": "Selectivity FGFR1/2", "setting": "[2]; ratio of IC50 FGFR1 to IC50 FGFR2", "result": 7.59},
      {"measurement": "IC50", "setting": "[2]; read-out: IC50 (nM) FGFR2, wild-type kinase, 33P-ATP 5 μM, substrate pEY + Mn, 120 minutes at room temperature", "result": 29.8, "unit": "nM"},
      {"measurement": "IC50", "setting": "[3]", "result": 226, "unit": "nM"}
    ]}
  ]
}
